Measured values as given in patent US20200400567A1, “FUSION POLYPEPTIDE” (PEKING UNIVERSITY, priority 2017, published 2020).

System: human acetylcholine receptor M3R subtype
Test: GRAB-ACh 1.0 in acute mouse hippocampus brain slices, local perfusion, two-photon imaging
Type: cell-based, mice
Settings: GRAB-ACh 1.0 expressing cells in brain slices

CN1CCCC1c1cccnc1 (stereo not shown) [nicotine]
fluorescence response to agonist: but not to; also recorded: cannot induce changes in the fluorescence signal

Entries after “also recorded” stand apart in the source; their conditions may differ.
